Measurements published in US7691420B2, “Compositions for the treatment and prevention of diabetes mellitus” (priority 2003, dated 2010).
Marks after values point to notes of the source that are not given here.

System: C57BLKS/J db/db mice
Test: Oral glucose tolerance test and fasted state glucose in db/db mice after 4 weeks
Assay type: in vivo
Conditions: 1% EGCG and/or 0.038% rosiglitazone in diet, oral glucose load 1 g/kg, blood glucose curve 0-180 minutes
Description: This model of late type 2 diabetes with severe hyperglycemia and obesity is widely used to determine the efficacy of anti-diabetic and anti-obesity compounds.
Male db/db mice were obtained from Jackson Laboratory (Bar Harbor, Me., USA). Adult mice aged 8 weeks were used in the experiment. Mice were housed individually in plastic cages with bedding and allowed free access to standard rodent food and tap water. The animal rooms were controlled for temperature (24° C.), humidity (55%), and light (12-h light-dark cycle). The animals were randomized into four groups. […] Body weight and food intake were determined over the course of the study. Total adipose tissue weight was determined by NMR. After four weeks of treatment an oral glucose tolerance test was carried out after an overnight fasting period. The blood glucose levels were measured before (fasted state glucose levels) application of an oral glucose load (1 g/kg body weight) and after 15, 30, 45, 60, 90, 120, 150 and 180 minutes. Area under the curve (AUC) was calculated from the resulting blood glucose curves and served as an indicator of glucose tolerance. At the end of the study, fed state levels of glucose, triglycerides and free fatty acids were determined in plasma. All data are expressed as means for animals in each group.

CN(CCOc1ccc(CC2SC(=O)NC2=O)cc1)c1ccccn1 (stereo not shown) [Rosiglitazone, rosiglitazone, reference compound]
AUC: 35185.0*
